Target: human serotonin 2C receptor (h-5-HT2C) (Homo sapiens (Human), UniProt P28335)
Assay: 5-HT2C receptor agonistic action assay (FLIPR Calcium 4 Assay kit, h-5-HT2C/CHO cells)
Type: cell-based
Conditions: test material 10 μmol/L, 100% = 10 μmol/L 5-HT, −100% = 10 μmol/L SB206553, below 0% = inverse agonistic action

Chains of the proteins cited; added tags and fusions are not shown. Residues count along the entry.
UniProt P28335, 33-458 limits assumed: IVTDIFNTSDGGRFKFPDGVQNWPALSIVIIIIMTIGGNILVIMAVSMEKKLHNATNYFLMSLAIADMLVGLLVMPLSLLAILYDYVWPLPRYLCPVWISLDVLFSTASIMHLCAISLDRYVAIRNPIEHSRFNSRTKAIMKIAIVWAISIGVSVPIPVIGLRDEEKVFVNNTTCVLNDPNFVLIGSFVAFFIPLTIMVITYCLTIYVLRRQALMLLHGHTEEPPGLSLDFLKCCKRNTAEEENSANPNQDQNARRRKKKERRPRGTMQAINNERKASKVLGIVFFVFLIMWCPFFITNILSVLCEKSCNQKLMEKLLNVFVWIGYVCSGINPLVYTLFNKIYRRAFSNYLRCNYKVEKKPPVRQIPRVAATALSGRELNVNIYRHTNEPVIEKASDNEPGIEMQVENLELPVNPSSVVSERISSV

Row | Compound | Test Ex. 3: 5-HT2C receptor agonistic action [%] | also measured
1 | CNCc1cc(OCc2ccccc2)n(CC2(C)CCCCC2)n1 | −103 | –
2 | CNCc1cc(OCc2ccccc2C#N)n(CC2CCCC2)n1 | −66 | –
3 | CNCc1cc(NCc2ccccc2)n(CC2CCCCC2)n1 | – | Test Ex. 3: 5-HT2C receptor agonistic action (tested form: 2HCl): −120%
4 | CCC(CC)CCn1nc(CNC)cc1OCc1cc(F)ccc1F | – | Test Ex. 3: 5-HT2C receptor agonistic action (tested form: HCl): −115%
5 | CNC(C)c1cc(OCc2cc(F)ccc2C)n(CCC(C)C)n1 (centres unmarked) | −87 | –

— patent publication US10183913B2, “Pyrazole compound” (Sumitomo Dainippon Pharma Co., Ltd., priority 2010, dated 2019)
